Results taken from patent US20260384428A1, “NOVEL PRMT5 INHIBITOR AND USE THEREOF” (published 2026).

Legend:
[1] = system: HCT-116 wild-type cells; experiment: Inhibitory activity on HCT-116 wild-type cell proliferation (Cell-Titer Glo); conditions: read-out: IC50 HCT-116 wild-type cells, 8 days, 37 °C, 0.1% DMSO
Protocol: (§1) Test case 2: Inhibitory activity test of compounds on HCT-116 wild-type cell proliferation Materials and cells: HCT-116 wild-type cells were purchased from Botron Healthcare (China); RPMI-1640 medium, fetal bovine serum and penicillin-streptomycin were purchased from Thermo Fisher (United States); 384-well plates were purchased from PerkinElmer (United States); and Cell-Titer Glo kits were purchased from Promega (United States).
Cell culture: HCT-116 wild-type cells were cultured in RPMI-1640 medium containing 10% fetal bovine serum+1% penicillin-streptomycin at 37 °C and 5% CO2. Cells in the logarithmic growth phase may be used for the test.
Detection of cell proliferation activity: The Cell-Titer Glo kit was used to detect the proliferation inhibitory activity of the compounds on HCT-116 wild-type cell proliferation. The cell concentration was adjusted, rendering that cells were inoculated into a 384-well plate at 40 μL per well and incubated overnight at 37 °C and 5% CO2. 40 nL of the compound was added into each well to reach a final concentration of 0-10,000 nM (starting concentration: 10,000 nM, 2-fold dilution, 10 points), and the cell plate with 0.1% DMSO content was incubated at 37 °C and 5% CO2 for 8 days. 40 μL of Cell-Titer Glo reagent was added to detect cell activity.

[2] = Pharmacokinetic test in mice; conditions: ICR male mice; for AUClast / T1/2: plasma
Protocol: ICR male mice N=3/group; original source: Zhejiang Vital River Laboratory Animal Technology Co., Ltd.
(§2) Single oral (PO) administration to ICR mice: The compound was weighed and dissolved with DMSO, a certain volume of polyethylene glycol 400 and water for injection (WFI) were added, and then a small volume of 1 mol/L hydrochloric acid solution was added to adjust to a clear solution. 3 mice were intragastrically administered after fasting overnight at a dosage of 10 mg/kg.
as §2, with “intravenous (IV)” for “oral (PO)”, “WFI” for “water for injection (WFI)”, “were” for “were intragastrically”, “administered via tail vein injection” for “administered”, “3” for “10”
Blood was collected from the dorsalis pedis vein at approximately 30 μL/time point, anticoagulated with dipotassium ethylenediaminetetraacetate and kept on ice until plasma was separated by centrifugation (4000 g/min; 5 min; 4 °C) within 1 h. The blood sampling time points were 0.0833 (intravenous injection), 0.25, 0.5, 1, 2, 4, 6, 8, and 24 h. The samples were stored in a refrigerator at −20 °C.
30 μL of plasma sample (10 μL sample+20 μL blank plasma sample) and 200 μL ice-cold ACN containing internal standard were mixed, and then drawn into vortex for 30 s and centrifuged at 4000 g/min for 20 min. 100 μL of the supernatant was transferred to a 96-well plate, and then 200 μL of ultrapure water was added. After drawing into vortex for 30 s, 5 μL or 10 μL was injected into LC-MS/MS for analysis.

[3] = system: HCT-116 MTAP(−/−) deficient cells; experiment: Inhibitory activity on the proliferation of HCT-116 MTAP (−/−) deficient cells (Cell-Titer Glo); conditions: read-out: IC50 HCT-116 MTAP(−/−) deficient cells, 8 days, 37 °C, 0.1% DMSO
From the text: Test Case 1: Inhibitory Activity Test of Compounds on the Proliferation of HCT-116 MTAP (−/−) Deleted Cells
as §1, with “Materials” for “Test case 2: Inhibitory activity test of compounds on HCT-116 wild-type cell proliferation Materials”, “MTAP (−/−) deficient” for “wild-type”
Cell culture: HCT116 MTAP (−/−) deleted cells were cultured in RPMI 1640 medium containing 10% fetal bovine serum+1% penicillin-streptomycin at 37 °C and 5% CO2. Cells in the logarithmic growth phase may be used for the test.
Detection of inhibitory activity on cell proliferation: The Cell-Titer Glo kit was used to detect the proliferation inhibitory activity of the compounds on HCT-116 MTAP (−/−) deficient cells. The cell concentration was adjusted, rendering that cells were inoculated into a 384-well plate at 40 μL per well and incubated overnight at 37 °C and 5% CO2. 40 nL of the compound was added into each well to reach a final concentration of 0-10,000 nM (starting concentration: 10,000 nM, 3-fold dilution, 10 points), and the cell plate with 0.1% DMSO content was incubated at 37 °C and 5% CO2 for 8 days. 40 μL of Cell-Titer Glo reagent was added to detect cell activity.

Row | Molecule | IC50 [1] [nM] | IC50 [3] [nM] | also measured
1 | C[C@H](c1ccc(C(F)(F)F)nn1)N(C(=O)c1cc2c(cc1F)nc(N)c1cncn12)C1CC1 (single isomer, unassigned) | 8050 | 32 | AUClast ([2]; IV (3 mg/kg)): 5699 ng·h/mL; T1/2 ([2]; IV (3 mg/kg)): 1.7 h; Bioavailability (F, %) ([2]; PO (10 mg/kg) vs IV (3 mg/kg)): 161%; AUClast ([2]; PO (10 mg/kg), fasted): 31071 ng·h/mL; T1/2 ([2]; PO (10 mg/kg), fasted): 2 h
2 | CC(c1ccccc1)N(C)C(=O)c1cc2c(cn1)nc(N)c1cncn12 (stereo not shown) | > 10000 | > 3000 | 
3 | Nc1nc2cc(F)c(C(=O)N(Cc3cc4ccccc4cn3)C3CC3)cc2n2cncc12 | > 10000 | 89.2 | 
4 | Nc1nc2ccc(C(=O)N(Cc3ccc(C(F)(F)F)cn3)C3CC3)cc2n2cncc12 | 8800 | 99 | 
5 | C[C@@H](c1ccc(C(F)(F)F)cn1)N(C(=O)c1cc2c(cc1F)nc(N)c1cncn12)C1CC1 | > 10000 | 630 | 
6 | [2H]C([2H])([2H])N(C(=O)c1ccc2nc(N)c3cncn3c2c1)C(C)c1ccc(C(F)(F)F)cn1 (stereo not shown) | 4330 | 52.7 | 
7 | N#Cc1cc2nc(N)c3cncn3c2cc1C(=O)N(Cc1ccc(C(F)(F)F)cn1)C1CC1 | 4860 | 144 | 
8 | Cc1ncn2c1c(N)nc1ccc(C(=O)N(Cc3ccc(C(F)(F)F)cn3)C3CC3)cc12 | 7900 | 76.1 | 
9 | CC(c1ccc(C(F)(F)F)cc1)N(C(=O)c1cc2c(cn1)nc(N)c1cncn12)C1CC1 (stereo not shown) | 3230 | 17.8 | 
10 | C[C@H](c1ccc(C(F)(F)F)nn1)N(C)C(=O)c1ccc2nc(N)c3cncn3c2c1 | > 10000 | 71.7 | 
11 | CC(c1ccc(C(F)(F)F)cn1)N(C(=O)c1ccc2nc(N)c3cncn3c2c1)C1CC1 (stereo not shown) | 4110 | 63.4 | 
12 | Cc1cc2c(N)nc3ccc(C(=O)N(Cc4ccc(C(F)(F)F)cn4)C4CC4)cc3n2c1 | 5190 | 2320 | 
13 | Nc1nc2cc(C(F)(F)F)c(C(=O)N(Cc3ccc(C(F)(F)F)cn3)C3CC3)cc2n2cncc12 | > 10000 | 558 | 
14 | C[C@H](c1ccc(C(F)(F)F)cn1)N(C)C(=O)c1ccc2nc(N)c3cncn3c2c1 | 4700 | 20.7 | 
15 | C[C@@H](c1ccc(C(F)(F)F)nn1)N(C(=O)c1cc2c(cc1F)nc(N)c1cncn12)C1CC1 | > 10000 | > 3000 | 
16 | C[C@H](c1ccc(C2CC2)cc1)N(C)C(=O)c1cc2c(cn1)nc(N)c1cncn12 | 9850 | 94.6 | 
17 | [2H]C([2H])([2H])N(C(=O)c1ccc2nc(N)c3cncn3c2c1)[C@@H](C)c1ccc(C(F)(F)F)cn1 | > 10000 | > 3000 | 
18 | Nc1nc2cnc(C(=O)N(Cc3ccc(C(F)(F)F)cn3)C3CC3)cc2n2cncc12 | 6780 | 160 | 
19 | Nc1nc2cc(F)c(C(=O)N(Cc3nccc4ccccc34)C3CC3)cc2n2cncc12 | > 10000 | 153 | 
20 | CC(c1ccc(C(F)(F)F)cn1)N(C(=O)c1cc2c(cc1F)nc(N)c1cncn12)C1CC1 (stereo not shown) [Example 16] | 4700 | 66.6 | 
21 | [2H]C([2H])([2H])N(C(=O)c1cc2c(cc1F)nc(N)c1cncn12)[C@@H](C)c1ccc(C(F)(F)F)cn1 | > 10000 | > 3000 | 
22 | CC(c1ccc(C(F)(F)F)nn1)N(C)C(=O)c1cc2c(cc1F)nc(N)c1cncn12 (stereo not shown) | 4660 | 35 | 
23 | C[C@H](c1ccc(C(F)(F)F)cn1)N(C(=O)c1ccc2nc(N)c3cncn3c2c1)C1CC1 | 4110 | 63.4 | 

These reach a lower IC50 [1]. Values come first.

Row | IC50 [1] [nM] | IC50 [3] [nM] | Molecule | also measured
24 | 933 | 36 | CC(c1ncccn1)N(Cc1ccc(C(F)(F)F)cn1)C(=O)c1ccc2nc(N)c3cccn3c2c1 (stereo not shown) | 
25 | 193 | 13.3 | 4-amino-7-fluoro-N-(3R,4R)-4-methoxytetrahydro-2H-pyran-3-yl)-N-(5-trifluoromethyl)pyridin-2-ylmethyl)imidazo[1,5-a]quinoxaline-8-formamide | 
26 | 957 | 14.2 | Nc1nc2cnc(C(=O)N(Cc3ccc(C(F)(F)F)cn3)CC3CC3)cc2n2cncc12 | 
27 | 2270 | 186 | CC(c1ncccn1)N(Cc1ccc(C(F)(F)F)cn1)C(=O)c1cc2c(cc1Cl)nc(N)c1cccn12 (stereo not shown) | 
28 | 837 | 12.7 | C[C@H](c1ccc(C(F)(F)F)cc1)N(C)C(=O)c1cc2c(cc1C#N)nc(N)c1cncn12 | 
29 | 796 | 6.6 | C[C@H](c1ccc(C(F)(F)F)cn1)N(C)C(=O)c1cc2c(cc1Cl)nc(N)c1cncn12 | 
30 | 1760 | 12.5 | [2H]C([2H])([2H])N(C(=O)c1cc2c(cc1F)nc(N)c1cncn12)[C@H](C)c1ccc(C(F)(F)F)cn1 | 
31 | 144 | 15.6 | CC(c1ncccn1)N(Cc1ccc(C(F)(F)F)cn1)C(=O)c1ccc2nc(N)c3cncn3c2c1 (stereo not shown) | 
32 | 823 | 7.7 | C[C@H](c1ccc(C(F)(F)F)cn1)N(C(=O)c1cc2c(cc1F)nc(N)c1cncn12)C1CC1 | 
33 | 91 | 4.5 | COC[C@@H](C)N(Cc1ccc(C(F)(F)F)cn1)C(=O)c1ccc2nc(N)c3cncn3c2c1 | 
34 | 2320 | 43.9 | Nc1nc2cc(F)c(C(=O)N(Cc3ccc(C(F)(F)F)cn3)CC(F)(F)F)cc2n2cncc12 | 
35 | 1640 | 20.1 | C[C@H](c1ccc(C(F)(F)F)cc1)N(C)C(=O)c1cc2c(cc1F)nc(N)c1cncn12 | 
36 | 1120 | 7.9 | C[C@H](c1ccc(C(F)(F)F)cc1)N(C)C(=O)c1cc2c(cc1Cl)nc(N)c1cncn12 | 
37 | 212 | 8.8 | CC(c1ncccn1)N(Cc1ccc(C(F)(F)F)cn1)C(=O)c1cc2c(cc1F)nc(N)c1cncn12 (stereo not shown) | 
